According to ChEMBL document CHEMBL1933028, “Discovery of cyclic amine-substituted benzoic acids as PPARα agonists” (Bioorg Med Chem Lett, 2012):

Experiments:
Homo sapiens [1] = species on record: Homo sapiens; test: Selectivity ratio of EC50 for human PPARdelta to EC50 for human PPARalpha
Homo sapiens [2] = species on record: Homo sapiens; test: Selectivity ratio of EC50 for human PPARgamma to EC50 for human PPARalpha
[3] = Selectivity ratio of EC50 for rat PPARalpha to EC50 for human PPARalpha
[4] = Selectivity ratio of EC50 for dog PPARalpha to EC50 for human PPARalpha
[5] = Selectivity ratio of EC50 for hamster PPARalpha to EC50 for human PPARalpha
[6] = Selectivity ratio of EC50 for mouse PPARalpha to EC50 for human PPARalpha

Row | SMILES | Ratio EC50 (Homo sapiens [1]) | Ratio EC50 (Homo sapiens [2]) | Ratio EC50 [3] | Ratio EC50 [4] | Ratio EC50 [5] | Ratio EC50 [6]
1 | Cc1nc(-c2ccc(Cl)cc2)sc1C(=O)NC1CCCN(c2cccc(C(=O)O)c2)C1 (stereo unspecified) | > 800 | > 800 | – | – | – | –
2 | Cc1nc(-c2ccc(Cl)cc2)sc1C(=O)N[C@H]1CCCN(c2cccc(C(=O)O)c2)C1 | – | – | 450 | 2 | 80 | 600
